Assay results from US8557814B2, “mTOR inhibitor salt forms” (OSI Pharmaceuticals, LLC, priority 2008, dated 2013).

Test: Solubility in water
Assay type: physicochemical

In the case of “trans-4-[4-amino-5-(7-methoxy-1H-indol-2-yl)imidazo[5,1-f][1,2,4]triazin-7-yl]cyclohexane carboxylic acid calcium salt [Example 2]”, the solubility in water is reported as < 1 mg/mL.
